Our source for the inhibition values is PubChem BioAssay AID504441 (Broad Institute, 2011).

Structures are written as SMILES. The entries are a selection whose mix differs from that of the whole data set. The source made the active and inactive calls. Cut-off read from the data, not from the text of the source: active = inhibition above about 50%; inactive = the rest.

For the test, the target named is Dual specificity tyrosine-phosphorylation-regulated kinase 1A (Rattus norvegicus) (UniProt Q63470). Briefly: inhibition of Dyrk1A kinase activity – biochemical, single point, plate reader, primary screen (AID 504441).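 Note: plate controls were vehicle with enzyme for no effect and no enzyme for full effect.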 The note with it: ADP-Glo luminescence, NFATc1 peptide, at 12.5 µM, active compounds read high. In general terms: ADP-Glo turns the ADP formed in a reaction into a luminescent signal.
Consider `CCC(=O)N(c1ccccc1)C1(COC)CCN(CCn2nnn(CC)c2=O)CC1`, for which the inhibition was inactive: -13.1%. In the case of `CCC(=O)N(c1ccccc1)C1(COC)CCN(CCc2cccs2)CC1` it was inactive: -10.8%.

A word on the inhibition: it is the drop in the measured response relative to a control, in per cent.
